According to paper PMC8292411 (British Journal of Cancer, 2021):
Structures can show the parent of a compound that is named as a salt.

How the values were obtained:
[1] = system: SACT-naive Asian patients with aHCC with MET overexpression; experiment: Phase 2 safety (adverse events, NCI-CTCAE v4.0); settings: for treatment-related AEs: ALT increased / treatment-related AEs: AST increased / treatment-related AEs: Alopecia / treatment-related AEs: Amylase increased / treatment-related AEs: Blood bilirubin increased / treatment-related AEs: Blood creatinine increased / treatment-related AEs: Decreased appetite / treatment-related AEs: Dermatitis acneiform / treatment-related AEs: Diarrhoea / treatment-related AEs: Fatigue / treatment-related AEs: Hypertension / treatment-related AEs: Hypoalbuminaemia / treatment-related AEs: Lipase increased / treatment-related AEs: Oedema peripheral / treatment-related AEs: Overall / treatment-related AEs: PPES: Phase 2, safety analysis set
Description: (§1) Patients in both phases continued to receive allocated therapy until disease progression, intolerable toxicity or withdrawal of consent.
DLTs are defined in Supplementary Table 3.
(§2) In Phase 2, analyses were conducted according to randomised treatment assignment. […] In total, 100 TTP events were required to ensure 80% power (with a two-sided significance level of 10%) for rejecting the null hypothesis of equal treatment effect between treatment arms, assuming a true hazard ratio (HR) of 0.6. […] For the primary and secondary time-to-event endpoints, treatment groups were compared in the mITT population, applying a two-sided log-rank test, stratified by BCLC stage (α = 10%).

[2] = system: advanced HCC with MET overexpression; experiment: Phase 2 randomised efficacy, tepotinib vs sorafenib (TTP, PFS, OS, response; RECIST v1.1); type: in vivo, human; settings: Phase 2, mITT
Description: as §1
In Phase 2, the primary endpoint was independent review committee (IRC)-assessed time to progression (TTP) per Response Evaluation Criteria in Solid Tumors (RECIST) v1.1. Secondary endpoints included investigator-assessed TTP, IRC- and investigator-assessed progression-free survival (PFS), objective response rate (ORR), disease control rate, OS and safety. In both phases, tumour assessments were performed according to RECIST v1.1 based on scans taken at the end of every second cycle until Cycle 13, and every four cycles thereafter.
as §2

SMILES: CN1CCC(COc2cnc(-c3cccc(Cn4nc(-c5cccc(C#N)c5)ccc4=O)c3)nc2)CC1 [Tepotinib, tepotinib hydrochloride hydrate]
- deaths deemed treatment-related ([1]; Phase 2): one instance of upper gastrointestinal haemorrhage
- decreased appetite, any cause ([1]; Phase 2): 35.6%
- diarrhoea, any cause ([1]; Phase 2): 37.8%
- patients who died due to AEs of any cause ([1]; Phase 2): 13.3%
- patients with Grade ≥3 AEs of any cause ([1]; Phase 2): 60%
- peripheral oedema, any cause ([1]; Phase 2): 42.2%
- permanent discontinuation due to QT interval prolongation ([1]; Phase 2): 1 n
- permanent discontinuation due to ascites ([1]; Phase 2): 1 n
- permanent discontinuation due to fatigue ([1]; Phase 2): 2 n
- permanent discontinuation due to hepatic encephalopathy ([1]; Phase 2): 1 n
- permanent discontinuation due to hepatic failure ([1]; Phase 2): 1 n
- permanent discontinuation due to upper gastrointestinal haemorrhage ([1]; Phase 2): 1 n
- permanent treatment discontinuation due to AEs of any cause ([1]; Phase 2): 15.6%
- treatment-related diarrhoea ([1]; Phase 2, any grade): 35.6%
- treatment-related fatigue ([1]; Phase 2, any grade): 20.0%
- treatment-related peripheral oedema ([1]; Phase 2, any grade): 24.4%
- patients with AEs of any cause (in words) ([1]; Phase 2, n = 45): All patients
- treatment-related AEs: ALT increased ([1]; Any grade): 4 (8.9) n (%)
- treatment-related AEs: AST increased ([1]; Any grade): 5 (11.1) n (%)
- treatment-related AEs: Alopecia ([1]; Any grade): 1 (2.2) n (%)
- treatment-related AEs: Amylase increased ([1]; Any grade): 3 (6.7) n (%)
- treatment-related AEs: Blood bilirubin increased ([1]; Any grade): 2 (4.4) n (%)
- treatment-related AEs: Blood creatinine increased ([1]; Any grade): 6 (13.3) n (%)
- treatment-related AEs: Decreased appetite ([1]; Any grade): 8 (17.8) n (%)
- treatment-related AEs: Dermatitis acneiform ([1]; Any grade): 0 (0.0) n (%)
- treatment-related AEs: Diarrhoea ([1]; Any grade): 16 (35.6) n (%)
- treatment-related AEs: Fatigue ([1]; Any grade): 9 (20.0) n (%)
- treatment-related AEs: Hypertension ([1]; Any grade): 0 (0.0) n (%)
- treatment-related AEs: Hypoalbuminaemia ([1]; Any grade): 5 (11.1) n (%)
- treatment-related AEs: Lipase increased ([1]; Any grade): 1 (2.2) n (%)
- treatment-related AEs: Oedema peripheral ([1]; Any grade): 11 (24.4) n (%)
- treatment-related AEs: Overall ([1]; Any grade): 37 (82.2) n (%)
- treatment-related AEs: PPES ([1]; Any grade): 8 (17.8) n (%)
- treatment-related AEs: ALT increased ([1]; Grade ≥ 3): 0 (0.0) n (%)
- treatment-related AEs: AST increased ([1]; Grade ≥ 3): 2 (4.4) n (%)
- treatment-related AEs: Alopecia ([1]; Grade ≥ 3): 0 (0.0) n (%)
- treatment-related AEs: Amylase increased ([1]; Grade ≥ 3): 2 (4.4) n (%)
- treatment-related AEs: Blood bilirubin increased ([1]; Grade ≥ 3): 1 (2.2) n (%)
- treatment-related AEs: Blood creatinine increased ([1]; Grade ≥ 3): 0 (0.0) n (%)
- treatment-related AEs: Decreased appetite ([1]; Grade ≥ 3): 0 (0.0) n (%)
- treatment-related AEs: Dermatitis acneiform ([1]; Grade ≥ 3): 0 (0.0) n (%)
- treatment-related AEs: Diarrhoea ([1]; Grade ≥ 3): 2 (4.4) n (%)
- treatment-related AEs: Fatigue ([1]; Grade ≥ 3): 2 (4.4) n (%)
- treatment-related AEs: Hypertension ([1]; Grade ≥ 3): 0 (0.0) n (%)
- treatment-related AEs: Hypoalbuminaemia ([1]; Grade ≥ 3): 0 (0.0) n (%)
- treatment-related AEs: Lipase increased ([1]; Grade ≥ 3): 0 (0.0) n (%)
- treatment-related AEs: Oedema peripheral ([1]; Grade ≥ 3): 0 (0.0) n (%)
- treatment-related AEs: Overall ([1]; Grade ≥ 3): 13 (28.9) n (%)
- treatment-related AEs: PPES ([1]; Grade ≥ 3): 1 (2.2) n (%)
- treatment-related AEs, Grade ≥3, overall ([1]; Phase 2, text): 28.9%
- treatment-related AEs, any grade, overall ([1]; Phase 2, text): 82.2%
- ORR by IRC [2]: 10.5%
- median OS [2]: 9.3 months
- median PFS assessed by IRC [2]: 2.8 months
- median investigator-assessed PFS [2]: 3.2 months
- median investigator-assessed TTP [2]: 5.6 months
- Best overall response: Complete response ([2]; IRC): 0 (0.0)
- Best overall response: Non-complete response/non-partial response ([2]; IRC): 2 (5.3)
- Best overall response: Not evaluable ([2]; IRC): 4 (10.5)
- Best overall response: Partial response ([2]; IRC): 4 (10.5)
- Best overall response: Progressive disease ([2]; IRC): 13 (34.2)
- Best overall response: Stable disease ([2]; IRC): 15 (39.5)
- Objective response rate ([2]; IRC): 4 (10.5) n (%)
- best overall response of PR ([2]; IRC): 10.5%
- disease control ([2]; IRC): 50%
- disease control rate ([2]; IRC): 19 (50.0) n (%)
- median IRC-assessed time to progression (TTP) ([2]; tepotinib 500 mg QD, sorafenib 400 mg twice daily): 2.9 months
- IRC-assessed TTP, stratified HR ([2]; tepotinib versus sorafenib): 0.42
- OS, stratified HR ([2]; tepotinib versus sorafenib): 0.73
- PFS assessed by IRC, stratified HR ([2]; tepotinib versus sorafenib): 0.53
- investigator-assessed PFS, HR ([2]; tepotinib versus sorafenib): 0.59
- investigator-assessed TTP, HR ([2]; tepotinib versus sorafenib): 0.45
